Like-named read-outs stand apart in the source and are kept apart here.
How the values were obtained:
[1] = Pharmacokinetic studies on mice, plasma and brain; settings: brain, i.p., 10 mg/kg single dose, male C57BL/6 mice; CL (L/hr/kg)
[2] = molecular target: T1, human D2R/β-arrestin (Homo sapiens (Human), UniProt P14416); experiment: β-Arrestin agonist assay (PathHunter); type: cell-based; settings: read-out: β-arrestin Agonist; CHO-K1 cell line expressing human D2R/β-arrestin
[3] = molecular target: T1, human D2R/β-arrestin; settings: read-out: cAMP Antagonist
[4] = molecular target: T1, human D2R/β-arrestin; experiment: Gi/cAMP agonist assay (Lance Ultra cAMP, Forskolin); type: cell-based; settings: read-out: cAMP Agonist; CHO-K1 cell line expressing human D2R/β-arrestin
[5] = molecular target: T1, human D2R/β-arrestin; settings: read-out: β-arrestin Antagonist

By UniProt entry, the sequences of proteins in these tests, tags left out. Where a name states a change or a piece, a line headed by the entry shows the natural chain unless it says otherwise.
UniProt P14416, whole entry: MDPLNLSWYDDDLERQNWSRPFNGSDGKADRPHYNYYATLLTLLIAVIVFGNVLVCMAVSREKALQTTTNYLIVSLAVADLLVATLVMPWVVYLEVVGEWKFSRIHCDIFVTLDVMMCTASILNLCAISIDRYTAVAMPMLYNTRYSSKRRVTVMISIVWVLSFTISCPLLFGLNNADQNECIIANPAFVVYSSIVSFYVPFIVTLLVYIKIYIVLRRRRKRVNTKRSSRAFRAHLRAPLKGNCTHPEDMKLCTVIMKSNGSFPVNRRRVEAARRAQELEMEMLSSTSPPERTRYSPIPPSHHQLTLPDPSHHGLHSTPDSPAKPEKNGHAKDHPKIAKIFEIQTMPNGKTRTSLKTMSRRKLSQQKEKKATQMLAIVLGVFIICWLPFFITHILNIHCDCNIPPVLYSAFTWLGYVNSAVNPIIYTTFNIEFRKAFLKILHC

Structure (SMILES)	CL [1] [mL/min/kg]	EC50 [2] [µM]	IC50 [3] [µM]	EC50 [4] [µM]	IC50 [5] [µM]
COc1cccc(C(NC(=O)C2CCN(CCOc3ccccc3)CC2)c2ccccn2)c1 (single isomer, unassigned)	124				
O=C(NC(c1ccc(F)cc1)c1ccccn1)C1CCN(CCOc2ccccc2)CC1 (single isomer, unassigned) [25a]		> 30	> 30	0.1 to 1	1 to 10
O=C(NC(c1ccc(F)cc1)c1ccccn1)C1CCN(CCOc2ccccc2)CC1 (single isomer, unassigned) [25b]		> 30	1 to 10	> 30	1 to 10
